These results are taken from patent publication US20170095445A1 (priority 2012, published 2017).

Test [1] relates to Cl2 inhalational lung injury (CILI). Put plainly: Survival study after exposure to a severe CILI model. To be noted: 60 minute exposure to 400 ppm Cl2.
The test system is the same in test [2]. Briefly: Severe CILI model (60 minute exposure), lung histology. To be noted: 60 minute exposure to 400 ppm Cl2, 2 and 6 hours post exposure, 24 hours post exposure.
Test [3] has the same test system. Put plainly: Murine Cl2 exposure model (30 minute exposure), lung histology. To be noted: 30 minute exposure to 400 ppm Cl2, 24 hours post exposure.
For test [4] the test system is unchanged. Put plainly: Murine Cl2 exposure model, R-901 12 hourly regimen, pulmonary MPO and histology. To be noted: 400 ppm Cl2 30 minutes, 30 mg/kg/dose IP 12 hourly from 15 minutes post exposure, 24 hours.
[5] abbreviates: in saline 2 and 6 hours post exposure, 3, 10 or 30 mg/kg/dose.
The mark [6] stands for this setting: in HPCD 2 and 6 hours post exposure, 6, 20 or 40 mg/kg/dose.

With `NC(CS)C(=O)N1CCCC1C(=O)NC(CS)C(=O)O` (stereo not shown), in test [1] (setting [5]), the “survival of the animals” value is given as “improved the survival of the animals”; the “weight loss (body mass)” value was “reduced loss and improved recovery of body mass”. Besides, the “CILI as exemplified by histology scores” value in test [2] (3, 10, 30 or 80 mg/kg/dose) is given as “attenuated CILI”. In addition, in test [3] (in saline 2 and 6 hours post exposure, 3, 10, 30, 80 mg/kg/dose), the “CILI as exemplified by histology scores” value is “dose-dependently attenuated CILI”.

Take `CC(=O)NC(CS)C(=O)N1CCCC1C(=O)NC(CS)C(N)=O` (stereo not shown) [R-901, 1-(2-acetamido-3-mercaptopropanoyl)-N-(1-amino-3-mercapto-1-oxopropan-2-yl) pyrrolidine-2-carboxamide]: the “reduction of histological damage relative to placebo” value in test [4] (n.s.) is reported as 20%. Also, in test [4] (p<0.0001), the “reduction of the elevation in pulmonary MPO relative to placebo” value amounted to 50%.

On to `CC1(C)CC(CO[N+](=O)[O-])C(C)(C)N1O` (stereo not shown), for which, in test [1] (setting [6]), the “survival of the animals” value was “improved the survival of the animals”; the “weight loss (body mass)” value was “reduced loss and improved recovery of body mass”. Also, in test [2] (1, 3, 10 or 30 mg/kg/dose), the “CILI as exemplified by histology scores” value is on record as “attenuated CILI”. For the same compound, the “CILI as exemplified by histology scores” value in test [3] (IP in HPCD 2 and 6 hours post exposure, 4, 12, 40, 80 mg/kg/dose) is listed as “dose-dependently attenuated CILI”.
